The values that follow come from patent publication US10071965B2, “Pyridone FabI inhibitors and uses thereof” (priority 2015, dated 2018).

For this data set the following is noted: mouse, in vivo.

Molecules are shown by their SMILES.

On to `CCCCCCc1cc(=O)c(Oc2ccccc2C)cn1C` [PT166], for which the “AUC0-24h, fold higher than PT04” value is listed as 5 fold and the “Cmax, fold higher than PT04” value is given as 9 fold.
